This is a selection; strong and weak results do not stand in their true shares. Results filed as inconclusive are left out. Calls of active or inactive are those of the source. Calls come from the whole dose curve; as a rule, active = well fitted inhibition curve with a large enough effect; inconclusive = small, poorly fitted or top-dose-only effect; inactive = no such curve, though single readings can be large or run the other way.
Test: Primary qHTS assay for Inhibitors of ovarian cancer metastasis using an organotypic tumor microenvironment (TME) model. Note: nearly all actives have a fitted effect of over 65% in size.
Settings: SKOV3ip1-GFP adhesion/invasion on 3D omental model, fluorescence; activity change, negative = inhibition: at 45.8 µM (top of the series)
From the text: PI: Ernst Lengyel MD., Ph.D. Department of Obstetrics and Gynecology, Section of Gynecologic Oncology University of Chicago Medicine, Chicago, Illinois. The tumor microenvironment (TME) is a key determinant of metastatic efficiency. We performed a quantitative high-throughput screen (qHTS) of diverse medicinal chemistry tractable scaffolds (44,420 compounds) and pharmacologically active small molecules (386 compounds) using a layered organotypic, robust assay representing the ovarian cancer metastatic TME. This 3D model contains primary human mesothelial cells, fibroblasts, and extracellular matrix, to which fluorescently labeled ovarian cancer cells are added. Initially, 100 compounds inhibiting ovarian cancer adhesion/invasion to the 3D model in a dose-dependent manner were identified. Of those, eight compounds were confirmed active in five high-grade serous ovarian cancer cell lines and were further validated in secondary in vitro and in vivo biological assays. […] Specifically, NCGC00117362 and PP-121 inhibited ovarian cancer adhesion, invasion, and proliferation, whereas milciclib inhibited ovarian cancer invasion and proliferation. […] To evaluate the clinical potential of NCGC00117362, structure - activity relationship studies were performed. […] The three compounds identified have promise as therapeutics for prevention and treatment of ovarian cancer metastasis.
PROTOCOL TABLE (as described by Inglese J, Shamu CE and Guy RK. 2007) SEQUENCE No. (e.g., 1, 2, 3, etc.); […] (e.g., Cells, Incubation, Reagent, etc.); VALUE; DESCRIPTION. 1; Cells; 4 uL; primary human omental fibroblast, black, clear bottom, low base, 1536-well Aurora assay plate. 2; Incubation; 48 hr; 37C. 3; Cells; 3 uL; 1,200 SKOV3ip1-GFP cells. 4; Compounds; 23nL; acoustic dispenser. 5; Incubation; 2 hr; room temperature. 6; Incubation; 16 hr; 37C. 7; Wash; 5 uL; 1x PBS. 8; Fixing; 5 uL; 4% paraformaldehyde (PFA). 9; Incubation; 15 min; room temperature 10; Wash, 5 uL; 1x PBS. 11; Detection; Fluorescence, excitation filter 488 nm, emission filter 509 nm. NOTES (numbers refer to Sequence numbers above) 1. For the 1,536-well format, 40 primary human omental fibroblasts and 400 mesothelial cells were seeded with 0.02 µg fibronectin and 0.02 µg collagen type I in 4 µL of growth media (2.3 mm2; Supplementary Fig. S1A). 2. Assay plates were incubated for 48 hours at 37 C. 3. After incubation, 1,200 SKOV3ip1-GFP were seeded in 3 µL of serum-free media (growth media minus FBS) on top of primary human omental cells. 4. Compounds or controls were added to each well immediately after the addition of the cancer cells. Compounds were screened in four doses (0.36-46 µmol/L), and the plates contained the positive control (Tomatine) in eight doses (0.035-75 µmol/L) and DMSO (equal volume controls) 5 - 6. The plates were incubated at room temperature for 2 hours and then at 37 degrees C for 16 hours. 7 - 10. Following incubation, the media were aspirated and each well washed with PBS (5 µL) and then fixed with 4% paraformaldehyde (PFA; 5 µL). After 15 minutes, the PFA solution was aspirated, PBS (5 µL) was added. 11. The number of GFP-labeled cells analyzed using a fluorescent cytometer TTP LabTech Acumen eX3 using 488 nm excitation filter and 509 nm emission filter. Data was normalized to the DMSO treated for negative and Tomatine treated wells for positive control. REFERENCES: Inglese J, Shamu CE and Guy RK, Reporting data from high throughput screening of small molecule libraries, Nature Chemical Biology, 2007, 3(8): 438-441. doi.org/10.1038/nchembio0807-438. Yasgar A, Shinn P, Jadhav A, Auld DS, Michael S, Zheng W, Austin CP, Inglese J and Simeonov A, Compound Management for Quantitative High-Throughput Screening. J. Assoc. Lab. Auto., 2008, 13: 79-89. doi: 10.1016/j.jala.2007.12.004.
In the case of `O=C(NCC1(N2CCOCC2)CCCCC1)c1ccccc1Br`, the activity change, negative = inhibition is reported as “inactive”.
In the case of `CCCCOc1ccccc1C(=O)NCC1(N2CCOCC2)CCCCC1`, the activity change, negative = inhibition is reported as inactive: 0.882%.
For `CCOc1ccc(C(=O)NCC2(N3CCOCC3)CCCCC2)cc1`, the activity change, negative = inhibition was “inactive”.
In the case of `CCCOc1cccc(C(=O)NCC2(N3CCOCC3)CCCCC2)c1`, the activity change, negative = inhibition is reported as inactive: -9.13%.
For `COc1ccccc1C(=O)NCC1(N2CCOCC2)CCCCC1`, the activity change, negative = inhibition was inactive: 20.1%.
In the case of `O=C(NCC1(N2CCOCC2)CCCCC1)c1ccc(Cl)cc1`, the activity change, negative = inhibition is reported as inactive: 6.11%.
With `CCOC(=O)C(=O)CBr` the activity change, negative = inhibition was inactive: -9.55%.
In the case of `COc1cc(C(=O)NCC2(N3CCOCC3)CCCCC2)cc(OC)c1OC`, the activity change, negative = inhibition is reported as “inactive”.
In the case of `CN(C)C1(CNC(=O)c2ccc(C(C)(C)C)cc2)CCCCC1`, the activity change, negative = inhibition is reported as inactive: -0.441%.
In the case of `Cc1ccccc1C(=O)NCC1(N(C)C)CCCCC1`, the activity change, negative = inhibition is reported as inactive: 3.96%.
For `CC(C)(C)c1ccc(C(=O)NCC2(N3CCOCC3)CCCCC2)cc1`, the activity change, negative = inhibition was inactive: 3.18%.
With `O=C(NCC1(N2CCOCC2)CCCCC1)c1ccccc1[N+](=O)[O-]` the activity change, negative = inhibition was “inactive”.
In the case of `O=C(NCC1(N2CCOCC2)CCCCC1)c1ccc([N+](=O)[O-])cc1`, the activity change, negative = inhibition is reported as “inactive”.
With `O=C(NCC1(N2CCOCC2)CCCCC1)c1ccccc1` the activity change, negative = inhibition was inactive: 4.22%.

Reference: PubChem BioAssay AID1963576 (National Center for Advancing Translational Sciences (NCATS), 2024)
